{"sequences": {"note": "Protein sequences, listed by entry. Tags and fused reporters are not part of them.", "UniProt P62136, whole entry, looked up": "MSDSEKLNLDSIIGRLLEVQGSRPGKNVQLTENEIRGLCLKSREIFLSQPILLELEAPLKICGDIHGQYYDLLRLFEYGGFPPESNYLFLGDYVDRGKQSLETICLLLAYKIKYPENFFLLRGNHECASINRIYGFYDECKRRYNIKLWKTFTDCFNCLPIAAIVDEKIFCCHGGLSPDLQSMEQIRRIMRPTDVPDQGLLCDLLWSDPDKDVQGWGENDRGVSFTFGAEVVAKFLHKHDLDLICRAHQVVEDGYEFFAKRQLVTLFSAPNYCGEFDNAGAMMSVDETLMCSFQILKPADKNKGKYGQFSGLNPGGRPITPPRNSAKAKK"}, "source": "PubChem BioAssay AID2355", "about": "(The Scripps Research Institute Molecular Screening Center, 2010)", "biological_target": "Serine/threonine-protein phosphatase PP1-alpha catalytic subunit (Homo sapiens) (UniProt P62136)", "assay": "PP1 phosphatase inhibitors, counter-screen for PP5 inhibitor project, biochemical, fluorescence, triplicate (AID 2355)", "conditions": "PP1 enzyme, fluorescent phosphatase substrate; at 6.7 µM; hits give high values", "note": "Only a part is listed here, and it is no random draw. Activity calls are given as the source filed them. No stated cut-off is given here; in the data, active means inhibition above about 16%; inactive means the rest.", "data": [{"smiles": "CN(C(=O)Cc1ccc(Cl)c(Cl)c1)[C@H]1CCCC[C@H]1N1CCCC1", "values": [{"measurement": "inhibition", "result": "inactive: 1.26%"}]}]}
